Where two headings read alike, the source gives them in different places.

The values below come from patent US10787490B2, “Peptide inhibitors of interleukin-23 receptor and their use to treat inflammatory diseases” (Protagonist Therapeutics, Inc., priority 2015, dated 2020).

For data set [1], the target named is IL-23R-expressing DB cells (Homo sapiens, UniProt Q5VWK5). The format is cell-based.
For data set [2], the target named is human IL-23R (IL23R_huFC) (Homo sapiens, UniProt Q5VWK5).
The nature of data set [3]: DTT stability assay (redox stability). Type of data set: in vitro ADME. The conditions noted are these: half-life, 0.5 mM DTT, room temperature; for DTT Stability: numeric.
The nature of data set [4]: Stability in simulated intestinal fluid (SIF). The format is in vitro ADME.
A short description of data set [5]: Stability in simulated gastric fluid (SGF). The format is in vitro ADME.
The target of data set [6] is T1, Natural killer (NK) cells (Homo sapiens, UniProt Q5VWK5).
T1 sequence (Q5VWK5 24-629): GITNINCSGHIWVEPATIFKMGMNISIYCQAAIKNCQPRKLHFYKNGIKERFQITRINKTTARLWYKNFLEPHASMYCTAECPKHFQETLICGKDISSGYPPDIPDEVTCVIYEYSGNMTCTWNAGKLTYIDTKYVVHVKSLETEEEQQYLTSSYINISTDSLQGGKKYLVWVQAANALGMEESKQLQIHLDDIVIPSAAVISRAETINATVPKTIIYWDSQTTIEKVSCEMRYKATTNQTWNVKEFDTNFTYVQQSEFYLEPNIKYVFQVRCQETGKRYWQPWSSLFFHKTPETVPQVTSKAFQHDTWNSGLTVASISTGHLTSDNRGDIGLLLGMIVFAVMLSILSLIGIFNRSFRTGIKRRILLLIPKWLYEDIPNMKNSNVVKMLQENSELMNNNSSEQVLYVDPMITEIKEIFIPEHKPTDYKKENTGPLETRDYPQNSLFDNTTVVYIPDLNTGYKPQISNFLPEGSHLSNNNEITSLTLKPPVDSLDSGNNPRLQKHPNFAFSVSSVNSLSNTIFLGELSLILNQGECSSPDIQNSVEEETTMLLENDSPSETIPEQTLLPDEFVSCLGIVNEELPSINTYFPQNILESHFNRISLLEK
Kind of data set: NK Cell Assay (IL-23-dependent IFNγ production). The format is cell-based.

The next data set has as its target T2, human IL6R (Homo sapiens, UniProt P08887).
T2 sequence (P08887 20-468): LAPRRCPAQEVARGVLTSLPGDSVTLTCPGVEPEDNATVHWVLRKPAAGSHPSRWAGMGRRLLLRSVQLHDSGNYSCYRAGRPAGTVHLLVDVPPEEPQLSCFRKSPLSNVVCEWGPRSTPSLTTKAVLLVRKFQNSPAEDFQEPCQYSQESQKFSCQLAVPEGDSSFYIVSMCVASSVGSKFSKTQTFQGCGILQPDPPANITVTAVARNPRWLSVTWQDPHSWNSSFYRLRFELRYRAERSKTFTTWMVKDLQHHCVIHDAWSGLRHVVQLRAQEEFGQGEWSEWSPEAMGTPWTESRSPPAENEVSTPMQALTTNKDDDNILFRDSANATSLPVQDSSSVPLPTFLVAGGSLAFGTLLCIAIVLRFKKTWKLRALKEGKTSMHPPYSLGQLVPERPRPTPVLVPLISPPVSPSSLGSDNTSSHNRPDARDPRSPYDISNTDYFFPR
In words: cell free ELISA for human IL6R (IL-6/IL-6R). Type of data set: binding. The conditions noted are these: read-out: Selectivity (ELISA, nM) IL-6/IL-6R, IC50. (In general: In an ELISA, binding on a coated surface is turned into a signal by an enzyme label.)

Data set [7] can be described thus: Stability in human intestinal fluid. Type of data set: in vitro ADME.
Another data set concerns the target human IL-12Rβ1 (Homo sapiens, UniProt P42701). The conditions noted are these: read-out: Selectivity (ELISA, nM) IL-23/IL-12Rβ1, IC50.
Data set [8] concerns panel of 44 targets (GPCRs, transporters, ion channels). Conditions: concentrations of up to 10 piM.
Another data set concerns the target T3, Mouse IL-23R (Mus musculus, UniProt Q8K4B4).
T3 sequence (Q8K4B4 24-374 limits assumed): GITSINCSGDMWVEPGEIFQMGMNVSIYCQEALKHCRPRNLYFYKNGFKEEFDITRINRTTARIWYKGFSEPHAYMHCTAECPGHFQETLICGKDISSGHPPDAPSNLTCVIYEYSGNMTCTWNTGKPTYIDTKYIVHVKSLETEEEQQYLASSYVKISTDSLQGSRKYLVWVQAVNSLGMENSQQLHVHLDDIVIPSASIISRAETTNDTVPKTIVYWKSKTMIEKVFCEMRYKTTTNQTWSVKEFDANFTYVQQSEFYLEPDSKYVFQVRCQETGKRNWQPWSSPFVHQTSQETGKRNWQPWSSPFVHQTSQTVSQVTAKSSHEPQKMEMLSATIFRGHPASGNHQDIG
Kind of data set: Mouse IL-23R Competitive Binding ELISA. Conditions: read-out: Cross Reactivity (nM) ELISA mouse IL23R IL23.

Where [9] appears, read: read-out: Human IL-23R Activity (nM) Cell Assay pSTAT3 HTRF.
Setting [10] is: read-out: Human IL-23R Activity (nM) ELISA huIL23R IL23.
The mark [11] stands for this setting: Table E13, IL-23 + IL-18 stimulated human NK cells, IFNγ, read-out: NK cell assay (nM), IC50.

On to Ac-CADWVCYWHTFGER-NH2 [SEQ ID NO: 230], for which the IC50 in data set [1] (setting [9]) and in data set [2] (setting [10]) was < 250 nM each time.
With Ac-CADWVWCYWHTFGA-+[Azt]-[(D)Lys]-NH2, the “DTT Stability (min)” value in data set [3] (class symbol) is reported as “* (* = 10-120 min)”.
For Ac-CQTWQCYWRENG-NH2 [SEQ ID NO: 219], the IC50 in [1] (setting [9]) and in data set [2] (setting [10]) was < 250 nM each time.
On to “Ac-CRDWQCYWHKFG-[AEP]-[(D)Lys]-OH [SEQ ID NO: 213]”, for which the IC50 in data set [1] (setting [9]) and in [2] (setting [10]) was < 250 nM in each case.
Ac-CRTWECYWHEFG-NH2 [SEQ ID NO: 217]: the “DTT Stability” value in data set [3] is listed as <10 min.
Same read-out and setting: next, “Ac-Cyclo-[[Abu]-QTWQC]-[Phe(4-OMe)]-[2-Nal]-[-MeLys]-ENG-NH2”: >120 min; “Ac-Cyclo-[[Abu]-QTWQC]-[Phe[4-(2-aminoethoxy)]-W-[α-MeLys]-ENG-NH2”: >120 min; “Ac-Cyclo-[[Abu]-RTWQQ-YWRKFG-[AEA]-[(D)Lys]-NH2”: >120 min.
Regarding “Ac-[Pen]-NTWQ-[Pen]-[Phe[4-(2-aminoethoxy)]-[2-Nal]-[4-amino-4-carboxy-tetrahydropyran]-[Lys(Ac)]—NN—NH2 [SEQ ID NO: 1185]”, the IC50 was < 10 nM in [1] (Table E31, class symbols, read-out: pStat3 HTRF); 2 nM in data set [1] (read-out: Cell assay (nM) Hu DB Cell (pSTAT3), IC50); 3.9 nM in data set [6] (IFNγ produced by human NK cells exposed to IL-23, read-out: Cell assay (nM) Hu NK cell, IC50); > 100000 nM on human IL6R; 2 nM in data set [2] (read-out: ELISA (nM) Hu, IC50, IL-23/IL-23R competitive binding, human); 7200 nM in data set [2] (read-out: ELISA IL23R/IL23 in nMoles (IC50), non-cyclic peptides). In addition, the IC50 in data set [2] (read-out: Human ELISA, Table E31) was < 10 nM; on human IL-12Rβ1, > 100000 nM. In addition, the “Stability (t1/2, hr) SIF” value in data set [4] was 33 h. For the same substance, the “SIF t1/2” value in [4] (Table E33) was >3 h. Also, the “Stability (t1/2, hr) SGF” value in [5] is 12 h. Further, the “SGF t1/2 (min)” value in data set [5] (Table E33) is given as >180, min. Also, the “Stability (t1/2, hr) HIF” value in data set [7] is 24 h. Besides, the “activity in safety panel of 44 targets (change in target's activity greater than 25%)” value in data set [8] is on record as “no activity”.
Turning to “Ac-[Pen]-QTWQ-[Pen]-YW-[α-MeLeu]-ENG-NH2”, the “DTT Stability” value in data set [3] was >120 min.
As for “Ac-[Pen]-QTWQ-[Pen]-[Phe(4-Ome)]-[2-Nal]-[α-MeLys]-ENG-NH2”, the “DTT Stability” value in data set [3] is listed as >120 min.
Still for that read-out and setting: next, Ac-[[Pen]-QTWQ-[Pen]-YW-[hLeu]-ENG-NH2: >120 min.
In the case of Hy-CADWVCYWHTFG-NH2 [SEQ ID NO: 169], the IC50 in [1] (setting [9]) was 251 to 1000 nM; in data set [1] (read-out: pStat3 HTRF in nMoles) it was 100 to 1000 nM; at Mouse IL-23R it was > 25000 nM; in [2] (read-out: ELISA IL23R/IL23 in nM), 100 to 1000 nM; in [2] (setting [10]) it was 251 to 1000 nM.
As for Hy-CQTWVCYWHTYG-NH2 [SEQ ID NO: 93], the IC50 in [6] (setting [11]) was < 25 nM.
In the case of Hy-CRDWQCYWHKFG-NH2 [SEQ ID NO: 197], the values for the IC50 (at Mouse IL-23R; in data set [2] (setting [10])) were > 25000 nM and 251 to 1000 nM, respectively.
As for Hy-CRTWQCYWRKFG-NH2 [SEQ ID NO: 253], the IC50 in data set [6] (setting [11]) was < 25 nM.
In the case of Hy-CSNWVCYWHTYG-NH2 [SEQ ID NO: 198], the IC50 in data set [1] (setting [9]) and in data set [2] (setting [10]) was < 250 nM in each case.
For the substance “[Ac-[Pen]-QTWQ-[Pen]-[Phe(4-CONH2)]-[2-Nal]-[α-MeLys]-[Lys(Ac)]-NN-NH2]2DIG [SEQ ID NO: 534]”, the “DTT Stability” value in data set [3] is on record as >120 min.
On to “[Ac-[Pen]-QTWQ-[Pen]-[Phe(4-OMe)]-[2-Nal]-[α-MeLys]-[Lys(Ac)]-NN-NH2]2DIG [SEQ ID NO: 532]”, for which the IC50 in data set [6] (Table 14, IL-23 + IL-18 stimulated human NK cells, IFNγ, read-out: NK Cell assay (nM), IC50) was < 10 nM.
Regarding “[D-Arg]-Cyclo-[[Abu]-QTWQC]-[Phe(4-2ae)]-[2-Nal]-[THP]-ENN-NH2”, the IC50 in [1] (thioether dimers, read-out: pStat3 HTRF) is < 10 nM.
